Experimental data published in PubChem BioAssay (NCI).
Several values for one entry are separate records, joined by “and”; a condition that tells them apart may be missing. Equal entries are not always repeated. The entries are a selection whose mix differs from that of the whole data set.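 In brief: 96-well plates, 48 h treatment, single concentration, percent growth endpoint.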 Some salts or complexes appear as unconnected parts, following the source record. Activity calls are given as the source filed them. How the source made its calls: active means growth percent below 10; inactive means the rest.

Columns and labels:
Assay in all cases: NCI-60 one-dose screen, 48 h (100 = growth as untreated, 0 = no growth, -100 = all killed)
Conditions in all cases: 10 µM
DU-145 prostate = test system: DU-145 prostate
K-562 leukemia = test system: K-562 leukemia
MALME-3M melanoma = test system: MALME-3M melanoma
MDA-MB-231 breast = test system: MDA-MB-231 breast
RXF 393 renal = test system: RXF 393 renal
SF-268 CNS = test system: SF-268 CNS
SF-295 CNS = test system: SF-295 CNS
SF-539 CNS = test system: SF-539 CNS
UACC-257 melanoma = test system: UACC-257 melanoma
M14 melanoma = test system: M14 melanoma
HCT-15 colon = test system: HCT-15 colon
HT29 colon = test system: HT29 colon
SNB-75 CNS = test system: SNB-75 CNS
SNB-19 CNS = test system: SNB-19 CNS
U251 CNS = test system: U251 CNS
PC-3 prostate = test system: PC-3 prostate
SK-MEL-5 melanoma = test system: SK-MEL-5 melanoma
UACC-62 melanoma = test system: UACC-62 melanoma
LOX IMVI melanoma = test system: LOX IMVI melanoma
SK-MEL-28 melanoma = test system: SK-MEL-28 melanoma

SMILES	growth (DU-145 prostate)	growth (K-562 leukemia)	growth (MALME-3M melanoma)	growth (MDA-MB-231 breast)	growth (RXF 393 renal)	growth (SF-268 CNS)	growth (SF-295 CNS)	growth (SF-539 CNS)	growth (UACC-257 melanoma)	growth (M14 melanoma)	growth (HCT-15 colon)	growth (HT29 colon)	growth (SNB-75 CNS)	growth (SNB-19 CNS)	growth (U251 CNS)	growth (PC-3 prostate)	growth (SK-MEL-5 melanoma)	growth (UACC-62 melanoma)	growth (LOX IMVI melanoma)	growth (SK-MEL-28 melanoma)
CCN(CC)CCOC(=O)C(O)(c1ccccc1)c1cc(C)cc(C)c1C (stereo not given)	inactive: 113%	inactive: 91.9%	inactive: 131%	inactive: 86%	inactive: 99.9%	inactive: 102%	inactive: 107%	inactive: 101%	inactive: 110%	inactive: 98.9%	inactive: 103%	inactive: 94.1%	inactive: 73.1%	inactive: 98.4%	inactive: 95.5%	inactive: 98.1%	inactive: 106%	inactive: 96.7%	inactive: 93.7%	inactive: 104%
O=[N+]([O-])c1cc([N+](=O)[O-])c(Nc2nnnn2CCO)c([N+](=O)[O-])c1	inactive: 127%	inactive: 96.9%	inactive: 116%	inactive: 118%	inactive: 96.3%	inactive: 117%	inactive: 108%	inactive: 108%	inactive: 89.3%	inactive: 102%	inactive: 105%	inactive: 100%	inactive: 85.9%	inactive: 107%	inactive: 105%	inactive: 95.8%	inactive: 109%	inactive: 96.4%	inactive: 99.7%	inactive: 114%
O=C(O)C1(O)c2ccccc2-c2ccccc21	inactive: 107%	inactive: 93.4% and inactive: 78.5%	inactive: 91.8% and inactive: 110%	inactive: 91.4% and inactive: 93.1%	inactive: 114% and inactive: 87.5%	inactive: 104% and inactive: 107%	inactive: 129%	inactive: 99.9% and inactive: 93.9%	inactive: 86.8% and inactive: 99.1%	inactive: 97.5% and inactive: 96.8%	inactive: 102% and inactive: 99.1%	inactive: 82.2% and inactive: 104%	inactive: 128%	inactive: 86.8% and inactive: 99.8%	inactive: 96% and inactive: 97.7%	inactive: 89%	inactive: 98% and inactive: 101%	inactive: 91.8% and inactive: 91.5%	inactive: 96%	inactive: 119% and inactive: 104%
O=[N+]([O-])c1cc([N+](=O)[O-])c(NCCO)c([N+](=O)[O-])c1	inactive: 70.9%	inactive: 62%	inactive: 87.5%	inactive: 93.9%	inactive: 87.7%	inactive: 83.6%	inactive: 87.6%	inactive: 69.9%	inactive: 74.5%	inactive: 94.7%	inactive: 74.9%	inactive: 43.8%	inactive: 85.3%	inactive: 94%	inactive: 81.4%	inactive: 88.6%	inactive: 99.4%	inactive: 80.4%	inactive: 47.3%	inactive: 106%
n1nc(-c2nn[nH]n2)n[nH]1	inactive: 135%	inactive: 108%	inactive: 112%	inactive: 98%	inactive: 90.8%	inactive: 123%	inactive: 106%	inactive: 124%	inactive: 101%	inactive: 105%	inactive: 108%	inactive: 107%	inactive: 106%	inactive: 98.3%	inactive: 101%	inactive: 109%	inactive: 109%	inactive: 98.9%	inactive: 102%	inactive: 114%
CC[N+]([O-])(CC)Cc1ccccc1.O=[N+]([O-])c1cc([N+](=O)[O-])c(S(=O)(=O)O)c([N+](=O)[O-])c1	inactive: 101%	inactive: 102%	inactive: 112%	inactive: 118%	inactive: 99.1%	inactive: 88.1%	inactive: 101%	inactive: 91.8%	inactive: 88.4%	inactive: 102%	inactive: 94.9%	inactive: 111%	inactive: 85.9%	inactive: 109%	inactive: 96.6%	inactive: 96.6%	inactive: 97.5%	inactive: 98.3%	inactive: 93.7%	inactive: 106%
COc1ccc(C(O)(C(=O)OCCN2CCCCC2)c2ccc(OC)cc2)cc1	inactive: 96%	inactive: 66%	inactive: 111%	inactive: 101%	inactive: 96.5%	inactive: 94%	inactive: 103%	inactive: 103%	inactive: 97.2%	inactive: 102%	inactive: 97.1%	inactive: 111%	inactive: 98.8%	inactive: 103%	inactive: 96.3%	inactive: 95%	inactive: 97.9%	inactive: 97.9%	inactive: 95.8%	inactive: 106%
O=C1N([N+](=O)[O-])CCN1[N+](=O)[O-]	inactive: 115%	inactive: 116%	inactive: 115%	inactive: 107%	inactive: 109%	inactive: 106%	inactive: 101%	inactive: 101%	inactive: 87.5%	inactive: 97.6%	inactive: 96.9%	inactive: 111%	inactive: 84.8%	inactive: 104%	inactive: 95.8%	inactive: 94.3%	inactive: 103%	inactive: 105%	inactive: 98.8%	inactive: 94.4%
Cc1c([N+](=O)[O-])cc([N+](=O)[O-])c(Br)c1[N+](=O)[O-]	inactive: 87.6%	inactive: 13.7%	active: -31.1%	inactive: 91.9%	inactive: 16.6%	inactive: 103%	inactive: 110%	inactive: 115%	inactive: 76%	inactive: 29.3%	active: -35.4%	active: -46.9%	inactive: 86.1%	inactive: 88.9%	active: -2.38%	inactive: 90%	inactive: 96.1%	inactive: 88.6%	inactive: 48.8%	inactive: 106%
Nc1cc([As](Cl)Cl)cc(N)c1O	inactive: 102%	inactive: 16.9%	inactive: 66.7%	inactive: 58.4%	inactive: 83.3%	inactive: 71.3%	inactive: 107%	inactive: 77.7%	inactive: 69.5%	inactive: 82.3%	inactive: 69.5%	inactive: 67.3%	inactive: 75.1%	inactive: 99.2%	inactive: 11.9%	inactive: 74.9%	inactive: 72.8%	inactive: 71.7%	inactive: 63.1%	inactive: 85.5%
O=[N+]([O-])N(CCOC(N(F)F)(N(F)F)N(F)F)CC([N+](=O)[O-])([N+](=O)[O-])[N+](=O)[O-]	inactive: 111%	inactive: 98.6%	inactive: 101%	inactive: 114%	inactive: 118%	inactive: 104%	inactive: 94.2%	inactive: 114%	inactive: 100%	inactive: 101%	inactive: 103%	inactive: 105%	inactive: 97.9%	inactive: 103%	inactive: 98.1%	inactive: 103%	inactive: 103%	inactive: 107%	inactive: 98.4%	inactive: 109%
CN/C(N)=N/[N+](=O)[O-]	inactive: 109%	inactive: 109%	inactive: 128%	inactive: 104%	inactive: 119%	inactive: 96.3%	inactive: 110%	inactive: 104%	inactive: 114%	inactive: 99.5%	inactive: 92.7%	inactive: 96%	inactive: 84.5%	inactive: 105%	inactive: 112%	inactive: 97.8%	inactive: 108%	inactive: 103%	inactive: 102%	inactive: 106%
O=C(OCCN1CCCCCCCC1)C(O)(c1ccccc1)c1ccccc1	inactive: 105%	inactive: 99.3%	inactive: 107%	inactive: 95.1%	inactive: 132%	inactive: 106%	inactive: 110%	inactive: 95.4%	inactive: 98.8%	inactive: 105%	inactive: 109%	inactive: 97.4%	inactive: 99.2%	inactive: 108%	inactive: 105%	inactive: 94.9%	inactive: 101%	inactive: 98%	inactive: 107%	inactive: 95.4%
O=[N+]([O-])c1cc([N+](=O)[O-])c(O)c([N+](=O)[O-])c1.c1ccc([I+]c2ccccc2)cc1	inactive: 90%	inactive: 32.1%	inactive: 64.9%	inactive: 72.5%	inactive: 51.1%	inactive: 57.8%	inactive: 59.8%	inactive: 67.8%	inactive: 59.9%	inactive: 58.5%	inactive: 79.5%	inactive: 26.9%	inactive: 80.1%	inactive: 69.8%	inactive: 62.1%	inactive: 65.3%	inactive: 32.3%	inactive: 89.9%	inactive: 49.7%	inactive: 79.5%
Nc1cccc(Cl)c1.O=[N+]([O-])c1cc([N+](=O)[O-])c(O)c([N+](=O)[O-])c1	inactive: 113%	inactive: 97.2%	inactive: 97.9%	inactive: 94.9%	inactive: 104%	inactive: 102%	inactive: 101%	inactive: 97.1%	inactive: 103%	inactive: 97%	inactive: 97.4%	inactive: 100%	inactive: 138%	inactive: 90.6%	inactive: 104%	inactive: 85.5%	inactive: 98.8%	inactive: 93.5%	inactive: 88.1%	inactive: 99.9%
